# Results published in PubChem BioAssay AID540308 (The Scripps Research Institute Molecular Screening Center, 2011).
# Protein sequences, listed by entry. Tags and fused reporters are not part of them.
# UniProt P32245, whole entry: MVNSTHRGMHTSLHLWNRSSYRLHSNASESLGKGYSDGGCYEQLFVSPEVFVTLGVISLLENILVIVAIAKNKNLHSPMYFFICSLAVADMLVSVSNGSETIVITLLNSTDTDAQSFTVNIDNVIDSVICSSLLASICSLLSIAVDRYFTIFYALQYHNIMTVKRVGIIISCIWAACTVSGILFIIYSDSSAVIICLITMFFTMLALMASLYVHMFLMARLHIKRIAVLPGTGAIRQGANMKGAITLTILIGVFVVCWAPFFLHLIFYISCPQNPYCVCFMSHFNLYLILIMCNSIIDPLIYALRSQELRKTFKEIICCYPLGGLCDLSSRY
# This is a selection; strong and weak results do not stand in their true shares. The source made the active and inactive calls.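 Rule for the calls: active = activation above a per-plate cutoff, the mean activation of sample wells on that plate plus 3 SD (cut at about 8% in these data); inactive = the rest.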
# Molecular target: Melanocortin receptor 4 (Homo sapiens) (UniProt P32245)
# Experiment: activators of MC4R beta-arrestin recruitment – cell-based, luminescence, agonist arm of biased-ligand search, primary screen (AID 540308)
# Settings: U2OS MC4R beta-arrestin complementation, at 8.9 µM, active compounds read high, percent of melanotan II response, DMSO zero
row,SMILES,activation
1,CCC(=O)N(c1ccccc1)C1(COC)CCN(CCn2nnn(CC)c2=O)CC1,inactive: -2.58%
2,CCC(=O)N(c1ccccc1)C1(COC)CCN(CCc2cccs2)CC1,inactive: -0.1%
